# Results from ChEMBL document CHEMBL4507258, “Data for DCP probe ABT-546” (2021).
# Protein sequences, listed by entry. Tags and fused reporters are not part of them.
# UniProt P25101, whole entry: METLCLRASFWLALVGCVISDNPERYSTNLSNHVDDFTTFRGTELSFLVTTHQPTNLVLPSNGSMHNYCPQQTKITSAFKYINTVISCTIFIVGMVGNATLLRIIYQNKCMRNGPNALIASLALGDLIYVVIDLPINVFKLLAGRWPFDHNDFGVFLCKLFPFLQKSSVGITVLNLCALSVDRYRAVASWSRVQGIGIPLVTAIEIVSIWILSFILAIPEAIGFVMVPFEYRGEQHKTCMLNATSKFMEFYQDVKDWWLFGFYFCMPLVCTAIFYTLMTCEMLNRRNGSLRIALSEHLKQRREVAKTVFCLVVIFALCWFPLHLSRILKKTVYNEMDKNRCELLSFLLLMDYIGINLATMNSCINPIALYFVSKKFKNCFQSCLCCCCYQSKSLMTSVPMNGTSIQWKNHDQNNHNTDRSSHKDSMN
# Calls of active or inactive are those of the source. The rule behind the calls is not given here.
# Molecular target: Endothelin-1 receptor (Homo sapiens, UniProt P25101)
# Test: Endothelin-1-evoked phosphatidylinositol hydrolysis
# Type: functional
smiles,measurement,value
CCCCN(CCCC)C(=O)CN1C[C@H](c2cc(OC)c3c(c2)OCO3)[C@@H](C(=O)O)[C@@H]1CC(C)(C)CCC [ABT-546],IC50,active: 0.59 nM
